Here are results for one compound from patent US20240277246A1, “MANGANESE-ENHANCED MAGNETIC RESONANCE IMAGING” (IC Targets AS, priority 2021, published 2024).

For data set [1] the following is noted: after end of 7.5 min infusion, 5 μmol/kg.
For data set [2], the system named is cardiomyocytes (left ventricle myocardium; uptake via L-type calcium channels). Kind of data set: Manganese-enhanced T1 mapping MRI, kinetic analysis of cardiomyocyte cellular manganese uptake after MnDPDP infusion. It is filed as in vivo, human. As to conditions: average of 5 patients with hypertrophic cardiomyopathia. The procedure: T1 mapping MRI was performed in a healthy volunteer to obtain baseline T1 values for the blood and myocardium before infusion of MnDPDP. A midventricular short axis view was used and a region of interest in the left ventricle myocardium and a region of interest in the blood in the ventricular cavity were used for measurements. An infusion of MnDPDP was administered at a rate of 50 μmol/min until a dose of 5 μmol/kg body weight was administered. The total infusion time was 7.5 minutes. T1 mapping MRI was performed every 2.5 minutes for a total of 40 minutes to collect data for kinetic analysis. […]
T1 mapping MRI was performed in a patient with a diagnosis of dilated cardiomyopathia to obtain baseline T1 values for the blood and myocardium before infusion of MnDPDP. […]
After the examination, the myocardial T1 values were converted to changes in relaxation rates from the baseline values according to equation 12. The heamocrit for the subject was measured to 0.44 and the plasma T1 values were converted to changes in relaxation rates according to equation 13. […]
The rate constant for cardiomyocyte intracellular relaxivity increase Kcell^ΔR1, and thus the cardiomyocyte cellular manganese uptake rate Kcell^Mn, was calculated according to the invention, applying equation 20 where the constant KECF was set equal to 1. […]

Structures are written as SMILES. Like-named read-outs stand apart in the source and are kept apart here.

For the compound `Cc1ncc(COP(=O)(O)O)c(CN(CCN(CC(=O)[O-])Cc2c(COP(=O)(O)O)cnc(C)c2O)CC(=O)[O-])c1O.[Mn+2]` [MnDPDP, manganese (II) N,N′-dipyridoxyl-ethylenediamine-N,N′-diacetate-5,5′-bis(phosphate)], the “halftime of decline of plasma ΔR1” value in data set [1] (average of 5 patients with hypertrophic cardiomyopathia) is “approximately 12 minutes”; in data set [1] (healthy volunteer), “approximately 15 minutes”; in data set [1] (patient with dilated cardiomyopathia), “approximately 12 minutes”. Besides, the “KECF, ratio between manganese concentration in ECF and plasma” value in data set [2] (ECV 0.322) was found to be 0.72. For the same compound, the “K3/K1, rate constant for irreversible uptake relative to rate constant for diffusion between plasma and ECF” value in data set [2] (assuming K1=K2) came to 0.40.
